{"source": "patent US6177447A", "about": "(Universiteit van Amsterdam, priority 1996, dated 2001)", "molecular_target": "lysosomal a-glucosidase (Homo sapiens, UniProt P10253)", "assay": "purified lysosomal a-glucosidase activity towards 4MU-a-glucoside", "format": "biochemical"}
{"compound": "OCC1C(O)C(O)C(O)CN1CCCCCOCC12CC3CC(CC(C3)C1)C2", "note": "(stereo not shown)", "values": [{"measurement": "Ki", "result": 870, "unit": "nM"}]}
